Earlier results, collected in US20220062190A1, “Therapeutic Agent and Nutraceutical Compositions And Methods for Making and Using Same” (NUREVELATION, LLC, priority 2020, published 2022).

Details: cited from earlier work

In the case of `Cc1cc2c(s1)Nc1ccccc1N=C2N1CCN(C)CC1` [Olanzapine], the LogP is listed as 4.09.
